The values below are quoted from earlier work in US20120289611A1, “PECTIN COMPOUNDS, METHODS OF USING PECTIN COMPOUNDS, AND METHODS OF CONTROLLING WATER SOLUBILITY” (priority 2009, published 2012).

Usually solubility stands for how much of the substance goes into solution per volume.

For this data set the following is noted: in water (where stated).

In brackets after ≈: the same amount, converted by molar mass.

As for `Cc1nc2n(c(=O)c1CCN1CCC(c3noc4cc(F)ccc34)CC1)CCCC2` [Risperidone], the solubility is 2.8 µg/mL (≈ 6.82 µM).
